Values joined by “and” are separate entries in the source; they are usually repeats but may differ in a detail not shown here. Equal values may be shown once. The list shows a part of the results, in another mix than the full data. Some results for these compounds are left out of this collection, so the calls shown say nothing about other tests. Records with an inconclusive call do not appear. Active and inactive are the calls of the source. Calls follow the shape of the dose curve; as a rule, active = well fitted cell-killing curve with a large enough effect; inconclusive = small, poorly fitted or top-dose-only effect, or effect the other way; inactive = flat fitted curve, though single readings scatter.
assay: qHTS assay for MDR1-selective chemotherapeutics: Primary screen using the drug-selected MDR subline cells KB-V1; details: KB-V1 MDR cells viability, CellTiter-Glo, 72 h; at 46.1 µM (top of the series); also: nearly all actives have a fitted effect of over 60% in size
From the text: A prime difficulty in effectively treating cancer is the development of cellular resistance to multiple structurally unrelated anticancer drugs, a phenomenon known as multidrug resistance (MDR). […] Numerous strategies to overcome P-gp-mediated MDR have been explored, including the design of drugs that evade recognition and efflux, and development of inhibitors to block efflux and restore drug accumulation. […] An alternative approach is to exploit resistance by identifying drugs that target MDR cells over the non-resistant parental cells from which they were selected. […] The development of MDR1-selective agents represents a new strategy for resolving multidrug resistance, as it remains a long-standing clinical challenge for cancer chemotherapy.
Our goal is to identify compounds that selectively kill P-gp-expressing MDR cells. We will identify MDR1-selective compounds by comparing toxicity of compounds in the screening library against parental, drug-naive (KB-3-1) adenocarcinoma cells as well as their drug-selected MDR sub-line (KB-V1). The differential toxicity of compounds against these two cell lines will be used to identify MDR1-selective compounds, whose cytotoxicity is potentiated, rather than diminished, by P-gp expression. This assay will be utilized to conduct a quantitative high-throughput screen (qHTS) in collaboration with the NIH Chemical Genomics Center to identify selective agents, and probe hits arising from the screen will be validated using secondary assays and characterized through a well-established follow-up research program. This screen was run against the entire NCGC library collection of about 400,000 compounds.
NIH Molecular Libraries Probe Production Network [MLPCN]
NIH Chemical Genomics Center [NCGC]
PI: Michael Gottesman, National Cancer Institute, NIH
Briefly, 5 microL of media containing either KB-V1 cells (columns 1-2, 4-48) are dispensed into Greiner white, treated solid-bottom 1536-well assay plates (media-only control is added to column 3). Compounds are then transferred via Kalypsys pin tool equipped with 1536-pin array (10 nL slotted pins, V&P Scientific, San Diego, CA). Following addition of compound, the plates are incubated at 37 degrees C for 72 hours. CellTiter-Glo (2.5 µL/well) is then added, and the plates are read in a ViewLux reader (Perkin-Elmer, clear luminescence filter, 1 second exposure, 1x binning) following a 10 minute incubation. All cells are dispensed in DMEM phenol-red free media containing 10% FBS.
Library plates were screened starting from the lowest and proceeding to the highest concentration. Vehicle-only plates, with DMSO being pin-transferred to columns 5-48, will be inserted uniformly at the beginning and the end of each library in order to monitor and record any shifts in the background, which can be affected by reagent dispensers or loss in enzyme activity over time. Screening data will be corrected, normalized, and concentration-effect relationships will be derived by using publicly-available NCGC, NCATS curve fitting algorithms (http://ncgc.nih.gov/pub/openhts).
% is scaled to controls: 0 for no effect and ±100 for the full control effect.

| Structure (SMILES) | activity change, negative = cytotoxicity |
| --- | --- |
| CN(C)c1cccc(C(=O)NCC2(N(C)C)CCCCC2)c1 | inactive: 10.5% |
| O=C(OCCN1CCCC1)C(O)(c1ccccc1)c1ccccc1 | inactive: 5.64% |
| CC(C)Oc1ccc(C(=O)NCC2(N(C)C)CCCCC2)cc1 | inactive: 7.34% and inactive: 12.4% |
| COc1ccc(Br)c(C(=O)NCC2(N3CCCCC3)CCCCC2)c1 | inactive: -2.37% |
| Cc1cccc(C(=O)NCC2(N(C)C)CCCCC2)c1 | inactive: 0% |
| COc1cc(C(=O)NCC2(N(C)C)CCCCC2)cc(OC)c1OC | inactive: -0.874% |
| C=C(C)C#CC(O)(C(=O)OC1CCN(C)CC1)c1ccccc1 (stereo unspecified) | inactive: 0.227% |
| CC(C)COc1ccc(C(=O)NCC2(N(C)C)CCCCC2)cc1 | inactive: -21.1% |
| O=C(OC1CN2CCC1CC2)C(CO)(c1ccccc1)c1ccccc1 (stereo unspecified) | inactive: -3.33% |
| COc1cccc(C(=O)NCC2(N3CCOCC3)CCCCC2)c1 | inactive: -17.3% |
| O=C(NCC1(N2CCCCC2)CCCCC1)c1cccc(Cl)c1 | inactive: 2.86% |
| COc1ccc(C(=O)NCC2(N(C)C)CCCCC2)cc1Cl | inactive: 24.5% |
| COc1ccc(Cl)cc1C(=O)NCC1(N(C)C)CCCCC1 | inactive: -1.37% |
| COc1cccc(C(=O)NCC2(N3CCCCC3)CCCCC2)c1 | inactive: -2.56% |
| COc1cc(C(=O)NCC2(N(C)C)CCCCC2)c([N+](=O)[O-])cc1OC | inactive: 27.9% |
| CN(C)C1(CNC(=O)c2ccc(Br)cc2)CCCCC1 | inactive: 0% |

| Structure (SMILES) | activity change, negative = cytotoxicity |
| --- | --- |
| O=C(CBr)c1ccc(Cl)cc1 | inactive: 13.6% |
| CCOc1cccc(C(=O)NCC2(N(C)C)CCCCC2)c1 | inactive: -11.9% |
| COc1ccc(C(=O)NCC2(N(C)C)CCCCC2)cc1 | inactive: -1.22% |
| O=C(NCC1(N2CCCCC2)CCCCC1)c1cc(F)c(F)cc1Cl | inactive: -8.22% |
| C=CCN1CCN(CCOC(=O)C(O)(c2ccccc2)c2ccccc2)CC1 | inactive: -12.1% |
| CN(C)C1CCCC1OC(=O)C(O)(c1ccccc1)c1ccccc1 (stereo unspecified) | inactive: 3.21% |
| CN(C)c1ccc(C(=O)NCC2(N(C)C)CCCCC2)cc1 | inactive: 15.9% |
| CN(C)C1(CNC(=O)c2ccccc2[N+](=O)[O-])CCCCC1 | inactive: -4.24% |
| Cc1ccccc1C(=O)NCC1(N2CCCCC2)CCCCC1 | inactive: -6.81% |
| CN(C)C1(CNC(=O)c2ccccc2F)CCCCC1 | inactive: -3.86% |
| Cc1ccc(C(=O)NCC2(N3CCCCC3)CCCCC2)cc1 | inactive: -0.999% |
| CC(C)N1C(=O)CC2(CCN(CCOC(=O)C(O)(c3ccccc3)c3ccccc3)CC2)C1=O | inactive: 4.7% |
| CCN(CC)CC(C)C(C)OC(=O)C(O)(c1ccccc1)c1ccccc1 (stereo unspecified) | inactive: -3.1% |
| CN(C)C1(CNC(=O)c2cccc(Cl)c2)CCCCC1 | inactive: -13.9% |
| O=C(NCC1(N2CCCCC2)CCCCC1)c1cc([N+](=O)[O-])ccc1Cl | inactive: -0.892% |
